{"source": "patent US20060192819A1", "about": "“Recording apparatus” (Fuji Xerox Co., Ltd., priority 2005, published 2006)", "assay": "Solubility of ionic liquid in 100 g of ink or treating solution", "type": "physicochemical", "conditions": "about 23° C., left 1 day", "description": "Solubility (the amount of the ionic liquid that can be solved in 100 g of the ink) is defined by mixing the ink and the ionic liquid in predetermined amounts and leaving the resultant mixture for 1 day while keeping it at a temperature of about 23° C. The amount of ionic liquid that has separated from the ink 1 day after mixing is determined as the amount of ionic liquid exceeding the solubility of the ionic liquid in the ink."}
{"substance": "1-ethyl-3-methylimidazolium bis(trifluoromethanesulfonyl)imide [Example 1-1]", "values": [{"measurement": "Solubility (g) of ionic liquid in 100 g of ink", "setting": "ink A", "value": "less than 5 g"}, {"measurement": "Solubility (g) ionic liquid in 100 g of treating solution", "setting": "treating solution A", "value": "less than 5 g"}]}
